Results as given in patent publication US20140142128A1, “METHODS OF TREATING A DISEASE OR DISORDER ASSOCIATED WITH BRUTON'S TYROSINE KINASE” (Celgene Avilomics Research, Inc., priority 2012, published 2014).

Tested on: related kinases
Assay: Selectivity in cellular assay systems
Assay type: cell-based

C=CC(=O)Nc1cccc(Nc2nc(Nc3ccc(OCCOC)cc3)ncc2F)c1 [Compound 1, N-(3-(5-fluoro-2-(4-(2-methoxyethoxy)phenylamino)pyrimidin-4-ylamino)phenyl)acrylamide]
Selectivity against related kinases: high degree of selectivity
